Test results reported in US20110151529A1, “METHODS AND PROCESSES FOR PRODUCING ORGANIC ACIDS” (THE OHIO STATE UNIVERSITY, priority 2008, published 2011).

System: ATPase
Assay: Butyric acid inhibition of ATPase activity, FBB-adapted mutant vs wild type

Compound: CCCC(=O)O [butyric acid]
- increase in the inhibition rate constant of ATPase, mutant vs wild type: 4 fold
